# Antibody variant affinities, Ab-14 heavy chain, assay 1

All variants were tested on one target, the spike HR2 peptide PDVDLGDISGINAS (SARS-CoV-2).

Each scFv is VH, a 15-residue (Gly4Ser)3 linker, VL, as in the parent Ab-14, and differs from it in the CDRs of the heavy chain only.
VH: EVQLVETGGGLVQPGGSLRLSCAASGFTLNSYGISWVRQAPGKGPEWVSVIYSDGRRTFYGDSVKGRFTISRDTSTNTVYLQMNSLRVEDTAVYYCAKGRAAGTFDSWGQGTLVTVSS
VL: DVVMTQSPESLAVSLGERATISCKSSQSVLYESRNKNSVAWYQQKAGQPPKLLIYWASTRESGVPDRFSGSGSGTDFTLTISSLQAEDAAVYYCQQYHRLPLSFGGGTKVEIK

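The parent was found by panning a naive human phage display library on the peptide. Variants in AAYL49 differ from the parent at up to three CDR positions; double and triple changes were sampled at random. The assay is AlphaSeq: two haploid yeast populations carry antibody and antigen on their surface. Mating (16 h, 30 °C) was followed by selection of diploids and sequencing of their barcodes. Scores were corrected for input abundance and mapped to Kd with protein pairs of known affinity run in the same pool. Each pool was mated in three replicate cultures.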

Each variant's VH is given in full. The read-out is the apparent dissociation constant on a log10 scale (nM): the lower, the stronger. Where no diploid with the target was found in that replicate, the entry reads "ND": below detection, most likely a poor binder, though not proof of it. Background: pairings of library AAYL49 with three empty control strains gave a value in 15% of cases (median 4.06, 5th percentile 2.83). Values in that range, when seen in few replicates, are hard to tell from nonspecific mating. Also given: how often the same scFv was detected with the empty control strains, with their mean in brackets.

VH | log10 Kd (nM) by replicate | empty controls
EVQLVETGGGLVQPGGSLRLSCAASGFTLNSYGISWVRQAPGKGPEWVSVIYSFGRRTMYGDSVKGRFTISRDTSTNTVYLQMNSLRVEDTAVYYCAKYRAAGTFDSWGQGTLVTVSS | 2.99 / ND / 4.71 | 0/9
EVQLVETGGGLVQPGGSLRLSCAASGFTLNSYGISWVRQAPGKGPEWVSVILSDGRRTLYGDSVKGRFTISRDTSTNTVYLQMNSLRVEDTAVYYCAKGRGAGTFDSWGQGTLVTVSS | ND / ND / ND | 0/9
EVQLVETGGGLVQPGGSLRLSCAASGFTLNSYGISWVRQAPGKGPEWVSVIYSDGRATFYGDSCKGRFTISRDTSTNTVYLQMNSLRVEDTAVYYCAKGRAAGTFDRWGQGTLVTVSS | 4.17 / 3.70 / 5.57 | 4/9 (4.48)
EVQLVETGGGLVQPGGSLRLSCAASGFTLNSYGESWVRQAPGKGPEWVSVIYSDGRRTFYGDSVKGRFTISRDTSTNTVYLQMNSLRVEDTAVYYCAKGSAAGTFASWGQGTLVTVSS | ND / 5.07 / ND | 1/9 (3.93)
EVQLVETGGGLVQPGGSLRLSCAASGFYLNSYGISWVRQAPGKGPEWVSVIYSDGRRTFYGQSVKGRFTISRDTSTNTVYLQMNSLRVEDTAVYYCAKGRAAGQFDSWGQGTLVTVSS | 3.21 / 2.87 / 3.30 | 6/9 (4.75)
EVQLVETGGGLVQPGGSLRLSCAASGFTLNSYGISWVRQAPGKGPEWVSVIYSDERRTFYGDSVVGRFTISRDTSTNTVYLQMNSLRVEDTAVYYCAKGKAAGTFDSWGQGTLVTVSS | ND / ND / ND | 0/9
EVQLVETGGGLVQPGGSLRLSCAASGFGLNSLGISWVRQAPGKGPEWVSVIYSDGRRTFYHDSVKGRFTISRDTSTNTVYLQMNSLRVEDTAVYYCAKGRAAGTFDSWGQGTLVTVSS | 1.71 / 1.82 / 2.27 | 1/9 (4.39)
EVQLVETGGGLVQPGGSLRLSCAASMFTLNSYGIPWVRQAPGKGPEWVSVIYSDGRRTFYGDSVKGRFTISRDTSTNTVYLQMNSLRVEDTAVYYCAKGRAAGTFDSWGQGTLVTVSS | ND / 4.28 / ND | 0/9
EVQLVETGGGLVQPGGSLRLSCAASGFTLNSYGISWVRQAPGKGPEWVSVIYSDFRRTNYGNSVKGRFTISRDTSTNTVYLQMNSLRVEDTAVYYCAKGRAAGTFDSWGQGTLVTVSS | ND / 3.79 / 5.75 | 4/9 (4.60)
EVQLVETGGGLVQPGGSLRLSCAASGFTLTSYGISWVRQAPGKGPEWVSVIDNDGRRTFYGDSVKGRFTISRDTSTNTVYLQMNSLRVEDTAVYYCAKGRAAGTFDSWGQGTLVTVSS | ND / ND / ND | 2/9 (3.34)
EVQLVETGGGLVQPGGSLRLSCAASGFTLNSRGISWVRQAPGKGPEWVSVIYSDGRRTEYGLSVKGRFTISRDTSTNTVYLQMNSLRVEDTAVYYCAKGRAAGTFDSWGQGTLVTVSS | 4.04 / ND / 3.69 | 0/9
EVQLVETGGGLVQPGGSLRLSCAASGFTYNSYGISWVRQAPGKGPEWVSVIYSDGRRTFYGPSVKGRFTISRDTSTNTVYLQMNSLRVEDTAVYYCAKGRAAGRFDSWGQGTLVTVSS | ND / ND / ND | 0/9
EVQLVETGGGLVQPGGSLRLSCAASGFTLNCQGISWVRQAPGKGPEWVSVIQSDGRRTFYGDSVKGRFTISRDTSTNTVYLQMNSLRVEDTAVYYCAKGRAAGTFDSWGQGTLVTVSS | ND / ND / ND | 1/9 (4.35)
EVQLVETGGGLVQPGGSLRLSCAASGKTLNSYGISWVRQAPGKGPEWVSVIYSDGRPTFYGDSVKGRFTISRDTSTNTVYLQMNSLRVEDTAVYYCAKGDAAGTFDSWGQGTLVTVSS | 5.05 / 4.52 / 4.97 | 5/9 (4.54)
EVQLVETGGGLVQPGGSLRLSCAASGFTLNSYGVSWVRQAPGKGPEWVSVIYSDGRRTFYGMSVKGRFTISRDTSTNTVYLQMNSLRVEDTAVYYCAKGRAAGTIDSWGQGTLVTVSS | 3.53 / 2.98 / 3.20 | 5/9 (4.54)
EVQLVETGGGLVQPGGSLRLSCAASGFTCNSYGISWVRQAPGKGPEWVSVIYSDGRGTFYGDSVKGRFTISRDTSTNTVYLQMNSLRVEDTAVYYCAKGRAAGTFDSWGQGTLVTVSS | ND / 4.31 / ND | 5/9 (4.74)
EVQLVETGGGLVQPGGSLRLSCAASGFTDNSYGISWVRQAPGKGPEWVSVIYSDGPRTFYGDSVKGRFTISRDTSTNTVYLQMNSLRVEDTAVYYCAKGRAAGTFDLWGQGTLVTVSS | ND / ND / ND | 0/9
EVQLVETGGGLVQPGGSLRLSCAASGFTLNSYGIDWVRQAPGKGPEWVSVIYSDFRRTFYGQSVKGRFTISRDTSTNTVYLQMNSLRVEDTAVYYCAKGRAAGTFDSWGQGTLVTVSS | ND / ND / ND | 0/9
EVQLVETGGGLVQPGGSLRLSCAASGFTLNSRGISWVRQAPGKGPEWVSVIYSDGRRTFYGDSVKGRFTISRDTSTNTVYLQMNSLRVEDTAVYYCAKGREAGWFDSWGQGTLVTVSS | ND / ND / ND | 1/9 (3.33)
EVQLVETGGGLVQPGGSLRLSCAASGFILNSYVISWVRQAPGKGPEWVSVIYSDGRRTFYGDSVKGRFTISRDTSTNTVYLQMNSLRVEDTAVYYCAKGRAAGHFDSWGQGTLVTVSS | ND / ND / ND | 1/9 (4.15)
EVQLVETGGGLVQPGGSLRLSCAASGFTLNSCGISWVRQAPGKGPEWVSVIYSDGRRHFYGDSVKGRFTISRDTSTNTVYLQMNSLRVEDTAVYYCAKGHAAGTFDSWGQGTLVTVSS | ND / ND / ND | 0/9
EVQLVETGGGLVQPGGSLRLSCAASGFTLNSYGISWVRQAPGKGPEWVSVIYSDGRRTFYGDSVKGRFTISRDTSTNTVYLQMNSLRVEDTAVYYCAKGRAAGTFLQWGQGTLVTVSS | 0.56 / 0.92 / 0.40 | 0/9
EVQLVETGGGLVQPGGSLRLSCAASGFTLNSYGIHWVRQAPGKGPEWVSVIYTDGRRTFYGDSVKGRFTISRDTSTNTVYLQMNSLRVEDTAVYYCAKGRANGTFDSWGQGTLVTVSS | ND / 3.84 / 3.47 | 4/9 (3.76)
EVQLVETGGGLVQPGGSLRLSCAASGFTLNSYGISWVRQAPGKGPEWVSVIYSDERRTFYGDSVKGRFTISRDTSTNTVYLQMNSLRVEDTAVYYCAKGRAAGTYDMWGQGTLVTVSS | 2.94 / ND / ND | 0/9
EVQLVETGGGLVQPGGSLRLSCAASGFRKNSYGISWVRQAPGKGPEWVSVIRSDGRRTFYGDSVKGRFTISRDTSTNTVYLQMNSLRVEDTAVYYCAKGRAAGTFDSWGQGTLVTVSS | ND / ND / ND | 1/9 (2.94)

2 of these entries, quoted again:

| VH | log10 Kd (nM) by replicate | empty controls |
|---|---|---|
| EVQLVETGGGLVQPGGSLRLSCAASGFTYNSYGISWVRQAPGKGPEWVSVIYSDGRRTFYGPSVKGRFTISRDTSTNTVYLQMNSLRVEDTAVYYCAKGRAAGRFDSWGQGTLVTVSS | ND / ND / ND | 0/9 |
| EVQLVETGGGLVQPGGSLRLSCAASGFILNSYVISWVRQAPGKGPEWVSVIYSDGRRTFYGDSVKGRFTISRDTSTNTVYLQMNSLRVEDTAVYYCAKGRAAGHFDSWGQGTLVTVSS | ND / ND / ND | 1/9 (4.15) |

The measurements come from Engelhart et al. 2022 (doi:10.1038/s41597-022-01779-4) through the FLAb antibody collection.